We go through one compound from US9663510B2, “Substituted triazolopyridines and their use as TTK inhibitors” (Bayer Intellectual Property GmbH, priority 2011, dated 2017).

This assay has as its system HeLa human cervical tumor cells. Nature of the assay: HeLa cell proliferation assay (crystal violet). It is filed as cell-based. The note with it: 96 h, 4 days incubation, read-out: Inhibition of cell proliferation, cell Line: HeLa IC50. As for the experimental part: Cultivated tumor cells (MCF7, hormone dependent human mammary carcinoma cells, ATCC HTB22; NCI-H460, human non-small cell lung carcinoma cells, ATCC HTB-177; DU 145, hormone-independent human prostate carcinoma cells, ATCC HTB-81; HeLa-MaTu, human cervical carcinoma cells, EPO-GmbH, Berlin; HeLa-MaTu-ADR, multidrug-resistant human cervical carcinoma cells, EPO-GmbH, Berlin; HeLa human cervical tumor cells, ATCC CCL-2; B16F10 mouse melanoma cells, ATCC CRL-6475) were plated at a density of 5000 cells/well (MCF7, DU145, HeLa-MaTu-ADR), 3000 cells/well (NCI-H460, HeLa-MaTu, HeLa), or 1000 cells/well (B16F10) in a 96-well multititer plate in 200 μl of their respective growth medium supplemented 10% fetal calf serum. […] Cell proliferation was determined by staining the cells with crystal violet: the cells were fixed by adding 20 μl/measuring point of an 11% glutaric aldehyde solution for 15 minutes at room temperature. […] The extinction was determined by photometry at a wavelength of 595 nm. The change of cell number, in percent, was calculated by normalization of the measured values to the extinction values of the zero-point plate (=0%) and the extinction of the untreated (0 μm) cells (=100%). The IC50 values were determined by means of a 4 parameter fit using the company's own software.

On to `COc1cc(N2CCOC2=O)ccc1Nc1nc2ccc(-c3ccc(NC(=O)[C@H](C)c4ccc(F)cc4)cc3)cn2n1` [Example 01.09, (2R)-2-(4-fluorophenyl)-N-[4-(2-{[2-methoxy-4-(2-oxo-1,3-oxazolidin-3-yl)phenyl]amino}[1,2,4]triazolo[1,5-a]pyridin-6-yl)phenyl]propanamide], for which the IC50 was less than 400 nM.
